Experimental data published in patent US20040072162A1, “Hiv peptides and nucleic acids encoding them for diagnosis and control of hiv infection” (priority 2000, published 2004).
pKd: −log10 of the molar value.

How the values were obtained:
EL4-A2 target cells = test: 51Cr release CTL assay with splenocytes of peptide-immunised HLA-A2 transgenic mice, peptide-pulsed EL4-A2 targets; assay type: in vivo, mouse; settings: for specific lysis of EL4-A2 targets pulsed with the immunising peptide: splenocytes restimulated in vitro with the same peptide
Protocol: Usually 3 mice were injected per query peptide. CTL was measured at day 10.
LPS blasts were prepared from 1 normal spleen (non-immunised HLA-A2 mouse) 3-5×10^6 splenocytes per ml of UPS medium in a final volume of 40 ml. LPS medium was RPMI 1640, 1% penicillin-streptomycin, 2% Hepes, 10% FCS, 7 μg/100 ml medium of dextran sulphate (Pharmacia #17034-01) and 25 ug/100 ml medium of LPS (Sigma #L-2387). After 3 days of culturing the splenocytes in LPS medium, the LPS blasts were treated with mitomycin to inhibit cell division. LPS blasts were treated with mitomycin at the same time as they were loaded with the target peptide. 2 ml of blasts were mixed with 20 μg of peptide and 100 μg of mitomycin in PBS. Incubate 1 hour at 37° C. in 5% CO2 in an Incubator. LPS blasts were then washed in media and adjusted to 2×10^7 cells/ml of medium (RPMI 1640, P+S, Hepes, 50 μM mercaptoethanol).
In the present invention EL-4-A2 or EL4 cells or EL4-A2 kb Cell line are interchangeable and described as follows: The plasmid pA2 kb is a kind gift from Nikolas Holmes. 10^7 EL4 cells (ATCC TIB-39) are electroporated with 20 μg of pA2 kb using the Gene Pulser system (BIO-RAD) (Potter et al., 1993). Electroporation was performed according to the manufactor's recommendations. Selection is undertaken after 48 hr with 600 μg/ml geneticin (G418 Gibco BRL). Cell clones are screened with the HLA-A2 specific monoclonal antibody (BB7.2 ATCC-HB82) by FACS analysis.
The method to validate an improved epitope for its ability to raise a CTL immune response that cross-reacts with the natural epitope is similar to that described in example 7. A2 transgenic immunisation: Mice were immunised with the selected improved epitope using 100 μl out of 600μ of a mixture containing IFA (30%), HBV T-helper epitope (960 μg) and test epitope (800 μg). CTL was measured at day 10 post-immunisation.
In vitro simulation of CTL effectors: Splenocytes obtained from the immunised mice were divided in two parts. The first half of the splenocytes were stimulated in the presence of LPS blasts loaded with the related natural epitope peptide.

[1] = target: HLA-A2 MHC-I (HLA-A*0204) (Homo sapiens, UniProt P04439, D140Y/D185E/D98H/E176V/E277Q/G131W/G231S/I119V/I121M/I166T/I218V/L300P/L318F/N151K/N90K/P208A/P217A/Q86G/Q94H/R138H/R169H/T345S); test: biochemical
[2] = test system: EL4 target cells (HLA-A2 negative); settings: negative control targets

Compound: CC(C)C[C@H](NC(=O)[C@H](CCCCN)NC(=O)[C@H](Cc1ccccc1)NC(=O)[C@H](CS)NC(=O)[C@H](Cc1c[nH]c2ccccc12)NC(=O)CNC(=O)[C@H](Cc1ccccc1)NC(=O)[C@H](CC(C)C)NC(=O)[C@@H](N)CC(C)C)C(=O)O [8.45]
- specific lysis of EL4A2 targets pulsed with the natural peptide by splenocytes induced against the improved epitope (EL4-A2 target cells; E:T ratio of 50, restimulated 5 days in vitro): 14%
- specific lysis of EL4-A2 targets pulsed with the immunising peptide (EL4-A2 target cells; E:T ratio of 50): 90%

Compound: CC(C)C[C@H](NC(=O)[C@@H](N)CC(N)=O)C(=O)N[C@@H](Cc1c[nH]c2ccccc12)C(=O)N[C@@H](C)C(=O)N[C@H](C(=O)N[C@@H](Cc1c[nH]cn1)C(=O)N[C@@H](C)C(=O)N[C@@H](CS)C(=O)N[C@H](C(=O)O)C(C)C)[C@@H](C)O [8.75mod]
- pKd [1]: 7.64

Compound: ILKEPVHGV [H3, reference compound]
- unspecific lysis of peptide-loaded HLA-A2 negative EL4 target cells [2]: No unspecific lysis
- specific lysis of EL4-A2 targets pulsed with the immunising peptide (EL4-A2 target cells; E:T ratio of 50): > 10%

Compound: CC[C@H](C)[C@H](NC(=O)[C@H](CC(C)C)NC(=O)[C@H](CCC(N)=O)NC(=O)[C@H](CC(=O)O)NC(=O)[C@H](C)NC(=O)[C@H](CC(C)C)NC(=O)CN)C(=O)N[C@@H](Cc1c[nH]cn1)C(=O)N[C@H](C(=O)O)C(C)C [8.11mod]
- pKd [1]: 7.49

Compound: CC(C)C[C@H](NC(=O)[C@@H](N)CCCCN)C(=O)N[C@@H](CCCCN)C(=O)N1CCC[C@H]1C(=O)N1CCC[C@H]1C(=O)N[C@@H](CC(C)C)C(=O)N1CCC[C@H]1C(=O)N[C@@H](CO)C(=O)N[C@H](C(=O)O)C(C)C [8.10mod]
- pKd [1]: 8.19

Compound: CC(C)C[C@H](NC(=O)[C@H](CC(C)C)NC(=O)[C@@H](N)CCCNC(=N)N)C(=O)N[C@@H](CC(N)=O)C(=O)N[C@@H](C)C(=O)N[C@@H](Cc1c[nH]c2ccccc12)C(=O)N[C@H](C(=O)N[C@@H](CCCCN)C(=O)N[C@H](C(=O)O)C(C)C)C(C)C [8.54]
- unspecific lysis of peptide-loaded HLA-A2 negative EL4 target cells [2]: do not react
- CTL response to the peptide used for immunisation (EL4-A2 target cells; FIG. 3, seen in one of 4 mice, less response in mouse 2): clear response
- cross-reaction of CTL with the related natural epitope (EL4-A2 target cells; FIG. 3, targets pulsed with 8.54Nat, one of 4 mice): cross-reaction to the related natural epitope

Compound: CC(C)C[C@H](NC(=O)[C@H](CCCCN)NC(=O)[C@H](Cc1ccccc1)NC(=O)[C@H](CS)NC(=O)[C@H](Cc1c[nH]c2ccccc12)NC(=O)CNC(=O)[C@H](Cc1ccccc1)NC(=O)[C@H](CC(C)C)NC(=O)[C@@H](N)CC(C)C)C(=O)O [8.45mod]
- pKd [1]: 7.60
